Measurements reported in US9586962B2, “Disubstituted octahydropyrrolo [3,4-C] pyrroles as orexin receptor modulators” (Janssen Pharmaceutica NV, priority 2011, dated 2017).

The chains behind the UniProt entries cited, without tags or fusion partners.
UniProt O43614, whole entry: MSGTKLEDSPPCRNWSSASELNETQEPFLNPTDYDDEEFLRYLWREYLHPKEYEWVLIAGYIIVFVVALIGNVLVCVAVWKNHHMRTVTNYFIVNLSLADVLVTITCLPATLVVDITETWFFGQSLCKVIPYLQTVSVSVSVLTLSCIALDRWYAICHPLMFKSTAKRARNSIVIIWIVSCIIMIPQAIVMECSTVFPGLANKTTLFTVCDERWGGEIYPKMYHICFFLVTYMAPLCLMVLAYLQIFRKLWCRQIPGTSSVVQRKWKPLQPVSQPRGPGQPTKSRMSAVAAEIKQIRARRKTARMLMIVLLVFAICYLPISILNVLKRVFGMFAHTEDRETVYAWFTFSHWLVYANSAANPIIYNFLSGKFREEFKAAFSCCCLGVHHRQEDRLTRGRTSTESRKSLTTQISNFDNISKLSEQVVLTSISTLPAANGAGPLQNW

target: T1, human orexin 2 receptor (Homo sapiens (Human), UniProt O43614); experiment: Human orexin 2 receptor Ca2+ mobilization assay (FLIPR, PFSK cells, orexin B 100 nM); type: cell-based; details: modified Cheng-Prusoff correction, read-out: OR 2 Kb

Cc1nc(N2CC3CN(C(=O)c4c(F)cccc4-n4nccn4)CC3C2)ncc1Cl (centres unmarked) [Example 316, 2-(5-Chloro-4-methylpyrimidin-2-yl)-5-{[2-fluoro-6-(2H-1,2,3-triazol-2-yl)phenyl]carbonyl}octahydropyrrolo[3,4-c]pyrrole] and Cc1cnc(N2CC3CN(C(=O)c4c(F)cccc4-n4nccn4)CC3C2)nc1C (centres unmarked) [Example 295, 2-(4,5-Dimethylpyrimidin-2-yl)-5-{[2-fluoro-6-(2H-1,2,3-triazol-2-yl)phenyl]carbonyl}octahydropyrrolo[3,4-c]pyrrole] are within 1.5-fold of each other in Kb: 8 nM for the first, 10 nM for the second.

Compared with Cc1cc(C)nc(N2CC3CN(C(=O)c4cc(I)ccc4-n4nccn4)CC3C2)n1 (centres unmarked) [Example 105, 2-(4,6-Dimethylpyrimidin-2-yl)-5-{[5-iodo-2-(2H-1,2,3-triazol-2-yl)phenyl]carbonyl}octahydropyrrolo[3,4-c]pyrrole], Cc1cc(C)nc(N2CC3CN(C(=O)c4ccc(F)cc4-n4nccn4)CC3C2)n1 (centres unmarked) [Example 118, 2-(4,6-Dimethylpyrimidin-2-yl)-5-{[4-fluoro-2-(2H-1,2,3-triazol-2-yl)phenyl]carbonyl}octahydropyrrolo[3,4-c]pyrrole] is 4-fold lower in Kb: 20 nM for the first, 5 nM for the second.

First: Cc1cc(C)nc(N2CC3CN(C(=O)c4cccc(C)c4-n4nccn4)CC3C2)n1 (centres unmarked) [Example 260, (5-(4,6-Dimethylpyrimidin-2-yl)hexahydropyrrolo[3,4-c]pyrrol-2(1H)-yl)(3-methyl-2-(2H-1,2,3-triazol-2-yl)phenyl)methanone]
Second: Cc1cc(C)nc(N2CC3CN(C(=O)c4c(C)cccc4-n4nccn4)CC3C2)n1 (centres unmarked) [Example 259, (5-(4,6-Dimethylpyrimidin-2-yl)hexahydropyrrolo[3,4-c]pyrrol-2(1H)-yl)(2-methyl-6-(2H-1,2,3-triazol-2-yl)phenyl)methanone]
The Kb of the first is 5.3-fold higher: 16 nM for the first, 3 nM for the second.

[2H]c1c(C([2H])([2H])[2H])nc(N2CC3CN(C(=O)c4cccc(F)c4-c4nc(C)no4)CC3C2)nc1C([2H])([2H])[2H] (centres unmarked) [Example 383, 2-{4,6-Bis[(^2H3)methyl](^2H)pyrimidin-2-yl}-5-{[3-fluoro-2-(3-methyl-1,2,4-oxadiazol-5-yl)phenyl]carbonyl}octahydropyrrolo[3,4-c]pyrrole] and Cc1cc(C)nc(N2CC3CN(C(=O)c4cccc(F)c4-c4nc(C)no4)CC3C2)n1 (centres unmarked) [Example 314, 2-(4,6-Dimethylpyrimidin-2-yl)-5-{[3-fluoro-2-(3-methyl-1,2,4-oxadiazol-5-yl)phenyl]carbonyl}octahydropyrrolo[3,4-c]pyrrole] are the same in Kb: 4 nM for the first, 4 nM for the second.

First: Cc1cc(C(C)(C)C)nc(N2CC3CN(C(=O)c4c(F)cccc4-n4nccn4)CC3C2)n1 (centres unmarked) [Example 301, 2-(4-tert-Butyl-6-methylpyrimidin-2-yl)-5-{[2-fluoro-6-(2H-1,2,3-triazol-2-yl)phenyl]carbonyl}octahydropyrrolo[3,4-c]pyrrole]
Second: Cc1cc(C)nc(N2CC3CN(C(=O)c4c(F)cccc4-n4nccn4)CC3C2)n1 (centres unmarked) [Example 107, [5-(4,6-Dimethyl-pyrimidin-2-yl)-hexahydro-pyrrolo[3,4-c]pyrrol-2-yl]-(2-fluoro-6-[1,2,3]triazol-2-yl-phenyl)-methanone]
The Kb of the first is 10-fold higher: 20 nM for the first, 2 nM for the second.

[2H]c1c(C([2H])([2H])[2H])nc(N2CC3CN(C(=O)c4c(F)cccc4-n4nccn4)CC3C2)nc1C([2H])([2H])[2H] (centres unmarked) [Example 382, 2-{4,6-Bis[(^2H3)methyl](^2H)pyrimidin-2-yl}-5-{[2-fluoro-6-(2H-1,2,3-triazol-2-yl)phenyl]carbonyl}octahydropyrrolo[3,4-c]pyrrole] and COc1cc(C)nc(N2CC3CN(C(=O)c4c(F)cccc4-n4nccn4)CC3C2)n1 (centres unmarked) [Example 296, 2-{[2-Fluoro-6-(2H-1,2,3-triazol-2-yl)phenyl]carbonyl}-5-(4-methoxy-6-methylpyrimidin-2-yl)octahydropyrrolo[3,4-c]pyrrole] are the same in Kb: 3 nM for the first, 3 nM for the second.

Cc1cc(CO)nc(N2CC3CN(C(=O)c4c(F)cccc4-n4nccn4)CC3C2)n1 (centres unmarked) [Example 433, {2-[5-{[2-Fluoro-6-(2H-1,2,3-triazol-2-yl)phenyl]carbonyl}hexahydropyrrolo[3,4-c]pyrrol-2(1H)-yl]-6-methylpyrimidin-4-yl}methanol] and Cc1cc(C2CC2)nc(N2CC3CN(C(=O)c4c(F)cccc4-n4nccn4)CC3C2)n1 (centres unmarked) [Example 302, 2-(4-Cyclopropyl-6-methylpyrimidin-2-yl)-5-{[2-fluoro-6-(2H-1,2,3-triazol-2-yl)phenyl]carbonyl}octahydropyrrolo[3,4-c]pyrrole] are the same in Kb: 8 nM for the first, 8 nM for the second.

Going from COc1cc(OC)nc(N2CC3CN(C(=O)c4c(F)cccc4-n4nccn4)CC3C2)n1 (centres unmarked) [Example 258, (5-(4,6-Dimethoxypyrimidin-2-yl)hexahydropyrrolo[3,4-c]pyrrol-2(1H)-yl)(2-fluoro-6-(2H-1,2,3-triazol-2-yl)phenyl)methanone] to Cc1nc(N2CC3CN(C(=O)c4c(F)cccc4-n4nccn4)CC3C2)nc(C)c1C (centres unmarked) [Example 294, 2-{[2-Fluoro-6-(2H-1,2,3-triazol-2-yl)phenyl]carbonyl}-5-(4,5,6-trimethylpyrimidin-2-yl)octahydropyrrolo[3,4-c]pyrrole], the Kb falls from 25 nM to 3 nM (8.3-fold).

First: Cc1cc(C)nc(N2CC3CN(C(=O)c4ccc5ccccc5c4-n4nccn4)CC3C2)n1 (centres unmarked) [Example 331, [5-(4,6-Dimethyl-pyrimidin-2-yl)-hexahydro-pyrrolo[3,4-c]pyrrol-2-yl]-(1-[1,2,3]triazol-2-yl-naphthalen-2-yl)-methanone]
Second: Cc1cc(C)nc(N2CC3CN(C(=O)c4ncccc4-n4nccn4)CC3C2)n1 (centres unmarked) [Example 332, [5-(4,6-Dimethyl-pyrimidin-2-yl)-hexahydro-pyrrolo[3,4-c]pyrrol-2-yl]-(3-[1,2,3]triazol-2-yl-pyridin-2-yl)-methanone]
The Kb of the first is 2-fold lower: 32 nM for the first, 63 nM for the second.

O=C(c1c(F)cccc1-n1nccn1)N1CC2CN(c3nc(C(F)(F)F)cc(C(F)(F)F)n3)CC2C1 (centres unmarked) [Example 280, 2-[4,6-Bis(trifluoromethyl)pyrimidin-2-yl]-5-{[2-fluoro-6-(2H-1,2,3-triazol-2-yl)phenyl]carbonyl}octahydropyrrolo[3,4-c]pyrrole] and Cc1nc(N2CC3CN(C(=O)c4c(F)cccc4-n4nccn4)CC3C2)ncc1F (centres unmarked) [Example 293, 2-(5-Fluoro-4-methylpyrimidin-2-yl)-5-{[2-fluoro-6-(2H-1,2,3-triazol-2-yl)phenyl]carbonyl}octahydropyrrolo[3,4-c]pyrrole] are within 1.5-fold of each other in Kb: 63 nM for the first, 79 nM for the second.

target: T1, human orexin 2 receptor; experiment: Human orexin 2 receptor radioligand binding ([3H]EMPA competition, HEK293 cells); details: read-out: OR 2 Ki, HEK293 cells expressing human orexin-2 receptor

First: Cc1cc(C)nc(N2CC3CN(C(=O)c4ncc(Cl)cc4-n4nccn4)CC3C2)n1 (centres unmarked) [Example 441, 2-{[5-Chloro-3-(2H-1,2,3-triazol-2-yl)pyridin-2-yl]carbonyl}-5-(4,6-dimethylpyrimidin-2-yl)octahydropyrrolo[3,4-c]pyrrole]
Second: Cc1cc(C)nc(N2CC3CN(C(=O)c4nc(C)ccc4-n4nccn4)CC3C2)n1 (centres unmarked) [Example 438, 2-(4,6-Dimethylpyrimidin-2-yl)-5-{[6-methyl-3-(2H-1,2,3-triazol-2-yl)pyridin-2-yl]carbonyl}octahydropyrrolo[3,4-c]pyrrole]
The Ki of the first is 5.4-fold lower: 103 nM for the first, 558 nM for the second.

First: Cc1cc(CO)nc(N2CC3CN(C(=O)c4c(F)cccc4-n4nccn4)CC3C2)n1 (centres unmarked) [Example 433, {2-[5-{[2-Fluoro-6-(2H-1,2,3-triazol-2-yl)phenyl]carbonyl}hexahydropyrrolo[3,4-c]pyrrol-2(1H)-yl]-6-methylpyrimidin-4-yl}methanol]
Second: Cc1nc(N2CC3CN(C(=O)c4c(F)cccc4-n4nccn4)CC3C2)nc(C)c1O (centres unmarked) [Example 498, 2-[5-{[2-Fluoro-6-(2H-1,2,3-triazol-2-yl)phenyl]carbonyl}hexahydropyrrolo[3,4-c]pyrrol-2(1H)-yl]-4,6-dimethylpyrimidin-5-ol]
The Ki of the first is 1.8-fold higher: 30 nM for the first, 17 nM for the second. The second binds more tightly here.

First: COc1c(C)nc(N2CC3CN(C(=O)c4c(F)cccc4-n4nccn4)CC3C2)nc1C (centres unmarked) [Example 497, 2-{[2-Fluoro-6-(2H-1,2,3-triazol-2-yl)phenyl]carbonyl}-5-(5-methoxy-4,6-dimethylpyrimidin-2-yl)octahydropyrrolo[3,4-c]pyrrole]
Second: Cc1cc(C)nc(N2CC3CN(C(=O)c4ccc(O)cc4-n4nccn4)CC3C2)n1 (centres unmarked) [Example 462, 4-{[5-(4,6-Dimethylpyrimidin-2-yl)hexahydropyrrolo[3,4-c]pyrrol-2(1H)-yl]carbonyl}-3-(2H-1,2,3-triazol-2-yl)phenol]
The Ki of the first is 2.6-fold lower: 7 nM for the first, 18 nM for the second. The first binds more tightly here.
